Data on 23 compounds can be found in patent publication US10189836B2, “Therapeutic compounds, compositions and methods of use thereof” (Genentech, Inc., priority 2015, dated 2019).

In the experiment the test system is JAK1-dependent STAT6 phosphorylation downstream of IL-13 stimulation in BEAS-2B cells.
As a reminder, the IC50 is the concentration needed to halve the response being measured. A higher IC50 goes with lower potency. As for `Cc1cc(S(=O)(=O)N2C3CCC2CN(c2cccn4nc(Nc5cnn(CC(=O)N6CCN(C)CC6)c5)nc24)C3)sn1` [Example 139, 2-[4-[[8-[8-(3-yl)sulfonyl-3,8-diazabicyclo[3.2.1]octan-3-yl]-[1,2,4]triazolo[1,5-a]pyridin-2-yl]amino]pyrazol-1-yl]-1-(4-methylpiperazin-1-yl)ethanone], the IC50 came out at 18.6 nM. `CN1CCN(C(=O)Cn2cc(Nc3nc4c(N5CC6CCC(C5)N6C(=O)c5ccccc5C#N)cccn4n3)cn2)CC1` [Example 140, 2-[3-[2-[[1-[2-(4-methylpiperazin-1-yl)-2-oxo-ethyl]pyrazol-4-yl]amino]-[1,2,4]triazolo[1,5-a]pyridin-8-yl]-3,8-diazabicyclo[3.2.1]octane-8-carbonyl]benzonitrile] had an IC50 of 24.6 nM. The value for `CN1CCN(C(=O)Cn2cc(Nc3nc4c(N5CC6CCC(C5)N6C(=O)N5CC(O)(C(F)(F)F)C5)cccn4n3)cn2)CC1` [Example 141, 2-[4-[[8-[8-[3-hydroxy-3-(trifluoromethyl)azetidine-1-carbonyl]-3,8-diazabicyclo[3.2.1]octan-3-yl]-[1,2,4]triazolo[1,5-a]pyridin-2-yl]amino]pyrazol-1-yl]-1-(4-methylpiperazin-1-yl)ethanone] was 11.1 nM; that for `CN1CCN(C(=O)Cn2cc(Nc3nc4c(N5C[C@H]6CC[C@@H](C5)[C@H]6OCc5ccccc5C#N)cccn4n3)cn2)CC1` [Example 142, 2-[[rac-(1S,5R)-3-[2-[[1-[2-(4-methylpiperazin-1-yl)-2-oxo-ethyl]pyrazol-4-yl]amino]-[1,2,4]triazolo[1,5-a]pyridin-8-yl]-3-azabicyclo[3.2.1]octan-8-yl]oxymethyl]benzonitrile] was 35.4 nM; that for `CN1CCN(C(=O)Cn2cc(Nc3nc4c(N5CC6CCC(C5)N6S(=O)(=O)c5cccc(C#N)c5)cccn4n3)cn2)CC1` [Example 143, 3-[[3-[2-[[1-[2-(4-methylpiperazin-1-yl)-2-oxo-ethyl]pyraol-4-yl]amino]-[1,2,4]triazolo[1,5-a]pyridin-8-yl]-3,8-diazabicyclo[3.2.1]octan-8-yl]sulfonyl]benzonitrile] was 34.1 nM. Compound `CN1CCN(C(=O)Cn2cc(Nc3nc4c(N5C[C@H]6CC[C@@H](C5)[C@H]6OCc5ccncc5)cccn4n3)cn2)CC1` [Example 144, 1-(4-methylpiperazin-1-yl)-2-[4-[[8-[rac-(1S,5R)-8-(4-pyridylmethoxy)-3 - azabicyclo[3.2.1]octan-3-yl]-[1,2,4]triazolo[1,5-a]pyridin-2-yl]amino]pyrazol-1-yl]ethanone] registered an IC50 of 39.2 nM. This IC50 and that of the compound before are within 1.5-fold of each other. On to `CN1CCN(C(=O)Cn2cc(Nc3nc4c(N5C[C@H]6CC[C@@H](C5)[C@H]6NCCC(F)(F)F)cccn4n3)cn2)CC1` [Example 145, 1-(4-methylpiperazin-1-yl)-2-(4-((8-((1R,5 S,8r)-8-((3,3,3-trifluoropropyl)amino)-3-azabicyclo[3.2.1]octan-3-yl)-[1,2,4]triazolo[1,5-a]pyridin-2-yl)amino)-1H-pyrazol-1-yl)ethanone], for which it took 440 nM to reach half-maximal inhibition (IC50). Against the preceding compound, the IC50 is about 11-fold higher.

`CN1CCN(C(=O)Cn2cc(Nc3nc4c(N5CC6CCC(C5)N6S(=O)(=O)c5ccccc5C#N)cccn4n3)cn2)CC1` [Example 147, 2-[[3-[2-[[1-[2-(4-methylpiperazin-1-yl)-2-oxo-ethyl]pyrazol-4-yl]amino]-[1,2,4]triazolo[1,5-a]pyridin-8-yl]-3,8-diazabicyclo[3.2.1]octan-8-yl]sulfonyl]benzonitrile] had an IC50 of 51.3 nM. `CN1CCN(C(=O)Cn2cc(Nc3nc4c(N5CC6CCC(C5)N6S(=O)(=O)c5ccccc5C(F)(F)F)cccn4n3)cn2)CC1` [Example 148, 1-(4-methylpiperazin-1-yl)-2-[4-[[8-[8-(2-(trifluoromethyl)phenyl]sulfonyl-3,8-diazabicyclo[3.2.1]octan-3-yl]-[1,2,4]triazolo[1,5-a]pyridin-2-yl]amino]pyrazol-1-yl]ethanone] registered an IC50 of 105 nM.

With `CN1CCN(C(=O)Cn2cc(Nc3nc4c(N5CC6CCC(C5)N6S(=O)(=O)c5ccc(C#N)cc5)cccn4n3)cn2)CC1` [Example 149, 4-[3-[2-([1-[2-(4-methylpiperazin-1-yl)-2-oxoethyl]-1H-pyrazol-4-yl]amino)-[1,2,4]triazolo[1,5-a]pyridin-8-yl]-3,8-diazabicyclo[3.2.1]octane-8-sulfonyl]benzonitrile], the IC50 worked out at 34.5 nM. The value for `CN1CCN(C(=O)Cn2cc(Nc3nc4c(N5CC6CCC(C5)N6S(=O)(=O)c5ccccc5F)cccn4n3)cn2)CC1` [Example 150, 2-[4-[[8-[8-(2-fluorophenyl)sulfonyl-3,8-diazabicyclo[3.2.1]octan-3-yl]-[1,2,4]triazolo[1,5-a]pyridin-2-yl]amino]pyrazol-1-yl]-1-(4-methylpiperazin-1-yl)ethanone] was 31.7 nM. The value for `Cc1ccc(CO[C@H]2[C@@H]3CC[C@H]2CN(c2cccn4nc(Nc5cnn(CC(=O)N6CCN(C)CC6)c5)nc24)C3)cn1` [Example 151, 1-(4-methylpiperazin-1-yl)-2-[4-[[8-[rac-(1S,5R)-8-[(6-methyl-3-pyridyl)methoxy]-3-azabicyclo[3.2.1]octan-3-yl]-[1,2,4]triazolo[1,5-a]pyridin-2-yl]amino]pyrazol-1-yl]ethanone] was 23.9 nM; that for `O=C(Cn1cc(Nc2nc3c(N4CC5CCC(C4)N5C(=O)CCC(F)(F)F)cccn3n2)cn1)N1CCN(C2CCC2)CC1` [Example 152, 1-[3-[2-[[1-[2-(4-cyclobutylpiperazin-1-yl)-2-oxo-ethyl]pyrazol-4-yl]amino]-[1,2,4]triazolo[1,5-a]pyridin-8-yl]-3,8-diazabicyclo[3.2.1]octan-8-yl]-4,4,4-trifluoro-butan-1-one] was 22.6 nM; that for `O=C(Cn1cc(Nc2nc3c(N4CC5CCC(C4)N5C(=O)CCC(F)(F)F)cccn3n2)cn1)N1CCN(C2CCCCC2)CC1` [Example 153, 1-[3-[2-[[1-[2-(4-cyclohexylpiperazin-1-yl)-2-oxo-ethyl]pyrazol-4-yl]amino]-[1,2,4]triazolo[1,5-a]pyridin-8-yl]-3,8-diazabicyclo[3.2.1]octan-8-yl]-4,4,4-trifluoro-butan-1-one] was 7.3 nM. As for `CN1CCN(C(=O)Cn2cc(Nc3nc4c(N5CC6CCC(C5)N6C(=O)CC(O)C(F)(F)F)cccn4n3)cn2)CC1` (centres unmarked) [Example 154, 4,4,4-trifluoro-3-hydroxy-1-[3-[2-[[1-[2-(4-methylpiperazin-1-yl)-2-oxo-ethyl]pyrazol-4-yl]amino]-[1,2,4]triazolo[1,5-a]pyridin-8-yl]-3,8-diazabicyclo[3.2.1]octan-8-yl]butan-1-one], the IC50 came out at 38.4 nM. This IC50 is about 5.3-fold higher than that of the compound before.

`CN1CCN(C(=O)Cn2cc(Nc3nc4c(N5CC6CCC(C5)N6S(=O)(=O)c5cccc(F)c5)cccn4n3)cn2)CC1` [Example 156, 2-[4-[[8-[8-(3-fluorophenyl)sulfonyl-3,8-diazabicyclo[3.2.1]octan-3-yl]-[1,2,4]triazolo[1,5-a]pyridin-2-yl]amino]pyrazol-1-yl]-1-(4-methylpiperazin-1-yl)ethanone] displayed an IC50 of 61.7 nM. In the case of `CN1CCN(C(=O)Cn2cc(Nc3nc4c(N5CC6CCC(C5)N6C(=O)c5ccsc5)cccn4n3)cn2)CC1` [Example 157, 1-(4-methylpiperazin-1-yl)-2-[4-[[8-[8-(thiophene-3-carbonyl)-3,8-diazabicyclo[3.2.1]octan-3-yl]-[1,2,4]triazolo[1,5-a]pyridin-2-yl]amino]pyrazol-1-yl]ethanone] it was 26.9 nM; in that of `CN1CCN(C(=O)Cn2cc(Nc3nc4c(N5CC6CCC(C5)N6S(=O)(=O)Cc5ccccc5F)cccn4n3)cn2)CC1` [Example 158, 2-[4-[[8-[8-[(2-fluorophenyl)methylsulfonyl]-3,8-diazabicyclo[3.2.1]octan-3-yl]-[1,2,4]triazolo[1,5-a]pyridin-2-yl]amino]pyrazol-1-yl]-1-(4-methylpiperazin-1-yl)ethanone], 73.2 nM; in that of `CN1CCN(C(=O)Cn2cc(Nc3nc4c(N5CC6CCC(C5)N6S(=O)(=O)Cc5cccc(F)c5)cccn4n3)cn2)CC1` [Example 159, 2-[4-[[8-[8-[(3-fluorophenyl)methylsulfonyl]-3,8-diazabicyclo[3.2.1]octan-3-yl]-[1,2,4]triazolo[1,5-a]pyridin-2-yl]amino]pyrazol-1-yl]-1-(4-methylpiperazin-1-yl)ethanone], 56.1 nM.

Compound `CN1CCN(C(=O)Cn2cc(Nc3nc4c(N5CC6CCC(C5)N6S(=O)(=O)Cc5ccc(F)cc5)cccn4n3)cn2)CC1` [Example 160, 2-[4-[[8-[8-[(4-fluorophenyl)methylsulfonyl]-3,8-diazabicyclo[3.2.1]octan-3-yl]-[1,2,4]triazolo[1,5-a]pyridin-2-yl]amino]pyrazol-1-yl]-1-(4-methylpiperazin-1-yl)ethanone] yielded an IC50 of 28.5 nM. Turning to `CN1CCN(C(=O)Cn2cc(Nc3nc4c(N5CC6CCC(C5)N6S(=O)(=O)Cc5ccccc5Cl)cccn4n3)cn2)CC1` [Example 161, 2-[4-[[8-[8-[(2-chlorophenyl)methylsulfonyl]-3,8-diazabicyclo[3.2.1]octan-3-yl]-[1,2,4]triazolo[1,5-a]pyridin-2-yl]amino]pyrazol-1-yl]-1-(4-methylpiperazin-1-yl)ethanone], inhibition was half-maximal at 98.7 nM (IC50).

Regarding `CN1CCN(C(=O)Cn2cc(Nc3nc4c(N5C[C@H]6CC[C@@H](C5)[C@H]6OCc5ccc(F)nc5)cccn4n3)cn2)CC1` [Example 162, 1-(4-methylpiperazin-1-yl)-2-[4-[[8-[rac-(1S,5R)-8-[(6-fluoro-3-pyridyl)methoxy]-3-azabicyclo[3.2.1]octan-3-yl]-[1,2,4]triazolo[1,5-a]pyridin-2-yl]amino]pyrazol-1-yl]ethanone], it took 85.5 nM to reach half-maximal inhibition (IC50). For the compound `COc1ccc(CO[C@H]2[C@@H]3CC[C@H]2CN(c2cccn4nc(Nc5cnn(CC(=O)N6CCN(C)CC6)c5)nc24)C3)cc1` [Example 163, 1-(4-methylpiperazin-1-yl)-2-[4-[[8-[rac-(1S,5R)-8-[(4-methoxyphenyl)methoxy]-3-azabicyclo[3.2.1]octan-3-yl]-[1,2,4]triazolo[1,5-a]pyridin-2-yl]amino]pyrazol-1-yl]ethanone], the IC50 was 62.1 nM. This IC50 and that of the compound before are within 1.5-fold of each other.
